Literature values in patent US20230414772A1, “MULTI-SPECIFIC HUMAN ALBUMIN NANOPARTICLES DECORATED WITH ANTIBODY FRAGMENTS AND LOADED WITH CYTOTOXICS” (ANBITION S.R.L., priority 2020, published 2023).

Substance: HSA: human serum albumin, plasma protein of 66.5 kDa
- solubility (40% ethanol): soluble
- stability on heating (60° C., 10 h): without structural loss
